{"sequences": {"note": "By UniProt entry, the sequences of proteins in these tests, tags left out. Residues count along the entry.", "UniProt P02768, 25-609": "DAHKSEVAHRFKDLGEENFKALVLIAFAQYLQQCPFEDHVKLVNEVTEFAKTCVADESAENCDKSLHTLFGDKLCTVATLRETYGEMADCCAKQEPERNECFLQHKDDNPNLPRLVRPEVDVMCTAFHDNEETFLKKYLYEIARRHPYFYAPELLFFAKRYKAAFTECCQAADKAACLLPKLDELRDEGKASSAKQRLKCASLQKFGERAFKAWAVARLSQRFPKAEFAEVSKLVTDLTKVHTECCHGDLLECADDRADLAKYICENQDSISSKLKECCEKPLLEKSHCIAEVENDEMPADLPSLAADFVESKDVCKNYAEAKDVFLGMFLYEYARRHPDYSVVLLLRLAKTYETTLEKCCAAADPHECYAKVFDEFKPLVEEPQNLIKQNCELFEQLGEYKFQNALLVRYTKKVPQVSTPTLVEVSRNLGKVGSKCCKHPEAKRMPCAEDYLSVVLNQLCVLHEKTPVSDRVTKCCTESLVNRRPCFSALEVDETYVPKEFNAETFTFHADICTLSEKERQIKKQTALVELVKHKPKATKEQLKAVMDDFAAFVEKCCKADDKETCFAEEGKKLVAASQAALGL"}, "source": "patent US20260139007A1", "about": "“EPHA4 ANTAGONISTS AND USES THEREOF” (SANFORD BURNHAM PREBYS MEDICAL DISCOVERY INSTITUTE, priority 2023, published 2026)", "origin": "cited, not measured here", "molecular_target": "human serum albumin (Homo sapiens, UniProt P02768)", "conditions": "cited from earlier work", "note": "pKd: −log10 of the molar value.", "data": [{"sequence": "RLIEDICLPRWGCLWEDD [SA21]", "values": [{"measurement": "pKd", "value": 6.33}]}]}
